# From paper PMC3485190, “Crystal Structures of Lysine-Preferred Racemases, the Non-Antibiotic Selectable Markers for Transgenic Plants” (PLoS ONE, 2012)
# Columns and labels:
# [1] = tested on: N=C(N)NCCC[C@H](N)C(=O)O; assay: purified protein; conditions: 100 mM CHES-NaOH pH 9.0, 30 µM PLP, 50°C
# [2] = tested on: NCCCC[C@H](N)C(=O)O; assay: purified protein; conditions: 100 mM CHES-NaOH pH 9.0, 30 µM PLP, 50°C
substance,measurement,setting,value
Lyr (lysine racemase) (Proteus mirabilis; S394Y/T391Y),Km,[1],75.5 ± 6.2 mM
same,kcat/Km,[1],5 M⁻¹ s⁻¹
same,Km,[2],34.3 ± 4.1 mM
same,kcat,[2],2.57 s⁻¹
Lyr (lysine racemase) (Proteus mirabilis; T391Y),Km,[1],47.7 ± 1.7 mM
same,kcat,[1],10.2 s⁻¹
same,kcat/Km,[1],213 M⁻¹ s⁻¹
same,Km,[2],37.6 ± 5.3 mM
same,kcat,[2],23.1 s⁻¹
same,kcat/Km,[2],613 M⁻¹ s⁻¹
